This passage reports p-MK2 levels and IC50 results from patent US20160151380A1, “THERAPIES FOR DISEASES CAUSED BY ARTHROPOD-BORNE PARASITES” (THE REGENTS OF THE UNIVERSITY OF CALIFORNIA, priority 2013, published 2016).

Amino acid sequences for entries named in this document (tags omitted).
UniProt P45983, whole entry, species assumed: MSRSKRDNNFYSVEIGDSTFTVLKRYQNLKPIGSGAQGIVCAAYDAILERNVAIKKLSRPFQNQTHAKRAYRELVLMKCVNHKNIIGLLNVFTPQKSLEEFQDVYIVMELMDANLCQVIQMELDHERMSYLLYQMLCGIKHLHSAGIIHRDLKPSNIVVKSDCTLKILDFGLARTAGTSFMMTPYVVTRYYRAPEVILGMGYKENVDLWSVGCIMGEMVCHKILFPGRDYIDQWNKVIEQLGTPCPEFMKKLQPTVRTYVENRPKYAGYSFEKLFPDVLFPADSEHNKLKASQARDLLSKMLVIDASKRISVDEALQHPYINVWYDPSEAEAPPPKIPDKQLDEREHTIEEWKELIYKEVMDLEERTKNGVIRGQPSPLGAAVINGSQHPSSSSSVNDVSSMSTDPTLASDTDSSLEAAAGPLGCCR
UniProt P53779, whole entry, species assumed: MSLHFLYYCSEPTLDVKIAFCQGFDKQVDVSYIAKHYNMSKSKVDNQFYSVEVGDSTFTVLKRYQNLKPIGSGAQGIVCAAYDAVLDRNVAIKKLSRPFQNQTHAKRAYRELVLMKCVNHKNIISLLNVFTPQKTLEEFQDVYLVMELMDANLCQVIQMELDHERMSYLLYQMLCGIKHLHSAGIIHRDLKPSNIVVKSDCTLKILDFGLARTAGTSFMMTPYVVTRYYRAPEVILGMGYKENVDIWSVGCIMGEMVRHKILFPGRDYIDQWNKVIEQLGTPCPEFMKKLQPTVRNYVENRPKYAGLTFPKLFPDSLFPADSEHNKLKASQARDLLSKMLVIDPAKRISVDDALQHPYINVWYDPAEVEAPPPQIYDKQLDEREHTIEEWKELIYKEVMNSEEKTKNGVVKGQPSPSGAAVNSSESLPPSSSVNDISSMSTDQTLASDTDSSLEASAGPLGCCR

Test [1] concerns Anopheles stephensi p38 MAPK. Kind of test: MK2 phosphorylation in LPS-stimulated ASE cells (western blot). It counts as cell-based. As to conditions: ASE cells pre-incubated with 10 μM inhibitor, 2 h later 1 μg/ml LPS.
For a further test, the target named is T1, PKCepsilon (Homo sapiens, UniProt Q02156).
T1 sequence (Q02156 1-737): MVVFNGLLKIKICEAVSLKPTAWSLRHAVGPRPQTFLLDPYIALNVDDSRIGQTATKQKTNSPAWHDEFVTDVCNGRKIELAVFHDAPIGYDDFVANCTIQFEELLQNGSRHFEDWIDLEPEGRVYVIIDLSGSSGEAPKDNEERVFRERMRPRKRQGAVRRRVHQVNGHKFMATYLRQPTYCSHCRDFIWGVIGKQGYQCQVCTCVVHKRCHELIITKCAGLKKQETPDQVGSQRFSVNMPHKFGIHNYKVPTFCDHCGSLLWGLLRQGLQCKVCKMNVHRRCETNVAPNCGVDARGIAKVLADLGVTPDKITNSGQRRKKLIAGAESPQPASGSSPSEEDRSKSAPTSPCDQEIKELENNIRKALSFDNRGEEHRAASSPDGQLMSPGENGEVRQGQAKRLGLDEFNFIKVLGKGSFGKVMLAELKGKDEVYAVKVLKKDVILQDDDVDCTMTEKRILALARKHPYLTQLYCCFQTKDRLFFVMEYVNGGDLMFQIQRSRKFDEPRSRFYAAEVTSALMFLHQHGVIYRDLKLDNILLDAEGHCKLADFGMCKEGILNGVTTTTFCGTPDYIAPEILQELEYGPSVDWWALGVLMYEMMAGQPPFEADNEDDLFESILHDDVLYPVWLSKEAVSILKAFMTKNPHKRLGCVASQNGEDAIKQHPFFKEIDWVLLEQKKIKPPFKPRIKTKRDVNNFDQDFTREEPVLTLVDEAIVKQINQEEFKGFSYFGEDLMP
As to conditions: cited from earlier work.

For the next test, the target named is JNK1 (Homo sapiens, UniProt P45983). As to conditions: cited from earlier work.
A further test concerns the target JNK3 (Homo sapiens, UniProt P53779). Conditions: cited from earlier work.

In the case of `Cc1ccc(-n2nc(C(C)(C)C)cc2NC(=O)Nc2ccc(OCCN3CCOCC3)c3ccccc23)cc1` [BIRB 796, 1-[5-tert-butyl-2-(4-methylphenyl)pyrazol-3-yl]-3-[4-(2-morpholin-4-ylethoxy)naphthalen-1-yl]urea], the p-MK2 levels result in test [1] was “undetectable”.
Consider `O=C(N[C@@H]1CNCCC[C@H]1OC(=O)c1cc(O)c(C(=O)c2c(O)cccc2C(=O)O)c(O)c1)c1ccc(O)cc1` [Ophiocordin], for which the IC50 at PKCepsilon is 20 nM.
Take `Cc1cc(NC(=O)c2cccc(NC(=O)/C=C/CN(C)C)c2)ccc1Nc1nccc(-c2cccnc2)n1` [JNKIN8]: the IC50 at JNK1 and on JNK3 was below 40 nM each time.

A word on the IC50: it is the concentration at which inhibition is half-maximal.
